## Apparent affinities of Ab-14 variants for a coronavirus HR2 peptide

Antigen: PDVDLGDISGINAS, a 14-residue peptide of the SARS-CoV-2 spike HR2 region.

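The parent was found by panning a naive human phage display library on the peptide. These sequences belong to a second round, designed from the earlier measurements on random variants of the parent. Group labels follow the data file (Ctrl: baseline library sampled from a position-specific scoring matrix, with some repeated check sequences; En: ensemble of fine-tuned language models; GP: Gaussian process model; HC: hill climbing; Gen: genetic algorithm; Gibbs: Gibbs sampling; a sequence that several methods proposed may carry one label only). In AlphaSeq, yeast of one mating type display the scFv and yeast of the other type display the target. Binding brings cells together so that they mate, and sequencing counts the barcode pairs among the diploids. Scores were corrected for input abundance and mapped to Kd with protein pairs of known affinity run in the same pool. Each pool was mated in six replicate cultures.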

Each scFv is VH, three GGGGS repeats, VL, as in the parent Ab-14, and differs from it in the CDRs of the light chain only.
VH: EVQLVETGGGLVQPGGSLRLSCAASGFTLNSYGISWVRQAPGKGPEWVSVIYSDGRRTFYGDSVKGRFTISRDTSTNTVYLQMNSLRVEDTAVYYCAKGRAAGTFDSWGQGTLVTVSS
VL: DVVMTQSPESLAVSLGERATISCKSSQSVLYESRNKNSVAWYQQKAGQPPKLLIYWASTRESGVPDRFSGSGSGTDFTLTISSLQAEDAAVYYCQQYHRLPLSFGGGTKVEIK

Each variant is given by its three light chain CDRs, as the data file delimits them; those of the parent are KSSQSVLYESRNKNSVA, WASTRES, QQYHRLPLS. The read-out is the apparent dissociation constant on a log10 scale (nM): the lower, the stronger. Averages over replicates are reported, and they cover detected replicates only. "no signal" marks a missing value. The strain was present, yet no cells mated with the target were sequenced in any replicate, which points to weak or no binding.

CDR-L1	CDR-L2	CDR-L3	group	mean, log10 nM	replicates with signal
KSLQKWLYESRNKNSVA	HASTREQ	QQYHRLPLS	GP_HC	1.73	6 of 6
MIGQMMGWESNKIHSVA	QANLRVE	QQYDRLPLE	En_Gen	0.93	1 of 6
NLSIQRQHQNMDANAVA	QTEIREV	QQYAQLPLA	En_Gibbs	0.45	6 of 6
KSSQSVATESRGKNSVA	WASTRES	QQYHRLPLS	Ctrl	1.88	6 of 6
KYYPSYLYESRNKNSVA	NASTRES	QQYHRLPLS	GP_HC	-0.16	6 of 6
KIGGVTNGISFNKNSVA	EQSTRED	QQYNRLPLS	En_HC	0.44	6 of 6
KLYQSTVIESFNKNNVA	EMTTRES	QSYDRLPLS	En_HC	2.32	2 of 6
KISMGWEMNTRQNHNMA	EASLKDS	QQYNRLPLF	En_Gibbs	0.09	6 of 6
KVNQLMNIEQMNTKSVA	HTSTREN	QQYHRLPLS	En_HC	0.63	6 of 6
KIGMTLNQLYEKVNNVA	DLVTREA	QQYHRLPLS	En_Gen	0.04	6 of 6
SLYENYANGSQHTNAVA	DANQMMR	QHYNRLPLA	En_Gibbs	1.29	4 of 6
TVSQVHEMLSHNKNSVA	DMNTREN	QQYDRLPLS	En_HC	0.15	6 of 6
KSSQSVLYESRNTNSVA	WASTRDS	QQYHRLPLS	Ctrl	2.98	4 of 6
MIYAANMELGRATNSIA	DNVTRYD	QQYERLPLS	En_Gen	2.55	6 of 6
HLQEQSFMGQKDYSSMA	NTECKYN	QQYARLPLM	En_Gibbs	0.79	6 of 6
HMRHEFYGYDNYDKAVA	HANQRHN	QQYSRLPFS	En_Gibbs	0.73	6 of 6
KVSQKDPMGSRNKNSVA	EASLRED	QQYHRLPLS	GP_Gibbs	0.92	6 of 6
KIGLVTNGISRSKNSVA	EQSTRES	QQYNRLPLS	En_HC	0.28	6 of 6
KLQQSQEYESRNKNSVA	HASTRLD	QQYHRLPLS	GP_HC	-0.28	6 of 6
KSSQSVLYESRDKNSVA	WASIRES	QQYHRLPLS	Ctrl	1.16	5 of 6
KSSQSVLDESSNKNSVA	WASTREY	QQYHRDPLS	Ctrl	1.99	2 of 6
TIGQTLMQGIRNRSNVA	EVSQRLN	QQYDRLPLF	En_Gen	2.00	6 of 6
TLYGLTNSMSKNQNSVA	EMTTREK	QQYDRLPLI	En_Gen	1.18	6 of 6
HMSMITLMGSRTRNSVA	QMTTREN	QQYDRLPLA	En_Gen	1.65	6 of 6
KVAERYEMGENFQSSIA	SGAHKVH	QQYHRLPLG	En_Gibbs	2.16	4 of 6
KISQTFNVGTKNKNSLA	EMSTRGF	QDYHRLPLS	En_HC	0.99	6 of 6
KISQMVRVGATKSNSIA	EMVTRAN	QQYHRLPLA	En_Gen	0.98	6 of 6
KLSQSVLYESRNSNNVA	HASTRES	QQYHRLPLS	GP_Gen	-0.46	6 of 6
MITYAETQLQRIDSNVA	AGSARCR	QQYYRLPLA	En_Gibbs	0.71	6 of 6
KMEQGVLYESRNKNSVA	NASTRES	QQYHRLPLS	GP_HC	-0.23	6 of 6
QILMATMQETYNRNSVA	HAETRED	QSYHRLPLS	En_HC	0.93	6 of 6
LMNERMMMGENQQHNIA	NAAHLVK	QQYHRLPLG	En_Gibbs	0.67	6 of 6
KLSQSVMYESRNKNSVA	DASTRES	QQYHRLPLS	GP_Gen	-0.16	6 of 6
KVSEFMRGLMQKKDSIA	DNVTRNN	QQYDRLPLS	En_Gen	no signal	0 of 6
ALTRQNLQNMDNLNSIA	EQNQTQE	QQYFRLPFA	En_Gibbs	0.55	6 of 6
TISQSMLMTGLNRNSVA	QAEERLE	QQYHRLPLS	En_HC	0.30	6 of 6
ESSQSVLYESRNKNSVA	WASTRES	QQYHRAPLS	Ctrl	no signal	0 of 6
VLQQLGLYEPRNKNSVA	SASTRCS	QQYHRLPLS	GP_Gibbs	0.67	6 of 6
KVSEFMRGLMMRKDSIA	DNVTRSK	QQYDRLPLS	En_Gen	1.57	2 of 6
KLHHYKLGENGMRGSVA	NMTIRDQ	QQYFRLPLF	En_Gibbs	0.84	6 of 6
KLSQSNLYEERNKNNVA	SASQREM	QQYHRLPLS	GP_Gibbs	-0.61	6 of 6
KIRFQQYSQSEMEDNIA	QESTRHQ	QQYFRLPLS	En_Gibbs	0.74	6 of 6
KLQQSQLYESRNKNSVA	DASQRLV	QAYHRLPLS	GP_Gibbs	0.51	6 of 6
KSSISVLYESRNKNSVA	WASTRES	YQYHRLPLS	Ctrl	no signal	0 of 6
KSSWSWLYESRNKNSVA	WASTRES	QQYHRLPLS	Ctrl	-0.02	6 of 6
MVYQAAMMGTSARNSIA	NAEMRPD	QQYHRLPLM	En_Gen	1.31	6 of 6
KLSQSELYESRNKNSVA	GASTRED	QQYHRLPLS	GP_Gen	0.47	6 of 6
KISWNFLIESKNLNSVA	EMTTREY	QDYDRLPLS	En_HC	no signal	0 of 6

Again, the first 4 entries without any signal:

CDR-L1	CDR-L2	CDR-L3	group	mean, log10 nM	replicates with signal
KVSEFMRGLMQKKDSIA	DNVTRNN	QQYDRLPLS	En_Gen	no signal	0 of 6
ESSQSVLYESRNKNSVA	WASTRES	QQYHRAPLS	Ctrl	no signal	0 of 6
KSSISVLYESRNKNSVA	WASTRES	YQYHRLPLS	Ctrl	no signal	0 of 6
KISWNFLIESKNLNSVA	EMTTREY	QDYDRLPLS	En_HC	no signal	0 of 6

Three control strains display no target. For all light chain designs, 4% of the pairings with them gave a signal, with a median of 2.64 and one signal in twenty below 1.59, so weak values seen in few replicates may be background. The authors' rule: three or more of the six replicates give a measured affinity, fewer mean a poor binder. Of ten entries with the parent sequence, four were seen in most replicates (averages 0.34 to 2.37), three in one and three in none, so single entries are noisy. A sequence measured in both rounds can read differently, since the two assays cover different ranges.

Source: Li et al. 2023 (doi:10.1038/s41467-023-39022-2), MIT Lincoln Laboratory and A-Alpha Bio; data file from the FLAb repository.